How the values were obtained:
miR-375 = details: WM1552C cells, Northern blotting
WM1552C cells [1] = experiment: miRNA expression profiling after 5AzadC and/or 4-PBA treatment (TLDA, NCode, qRT-PCR); assay type: cell-based, human; details: for expression level of epigenetically regulated miRNAs: melanoma-derived cell lines, treated vs untreated
Description: The assay was performed in duplicate. For cDNA synthesis and real-time PCR by Taqman Low Density Array (TLDA), total RNA (800 ng) was subjected to 8 separate reverse transcription reactions (100 ng each) using Multiplex RT for TaqMan® MicroRNA Assays, Human Pool Set kit (Applied Biosystems/Life Technologies). The resulting cDNA (10 μL) was diluted 1:62.5 with nuclease-free water. TLDAs consisting of a panel of 365 human miRNAs and 3 miRNA endogenous controls were run in triplicate for each sample. Diluted cDNA (50 μL) was added to 50 μL of 2× TaqMan Universal Master Mix (No AmpErase UNG; Applied Biosystems/Life Technologies). This 100-4, mixture was applied to the respective array port and the TLDA was then centrifuged twice and sealed. Quantitative real-time PCR was performed using the Applied Biosystems 7900 Real-Time PCR Sequence Detection System with the following thermal cycling parameters: 94.5° C. for 30 s followed by 40 cycles of 97° C. for 30 s, 59.7° C. for 1 min. To identify transcriptional changes in melanoma cells induced by DNA methylation and/or histone modification, WM1552 cells were treated as above with 5AzadC, 4-PBA, or with both. Following exposure, cellular miRNA expression was compared between treated and untreated cells using two miRNA expression profiling platforms (TILDA; ABI and NCode; Lifetech).

miR-375 CpG island = experiment: bisulfite sequencing of miR-375 CpG island in 5AzadC-treated cells; assay type: cell-based, human; details: WM1552C cells; 68.2% without treatment
miR-34b = experiment: Northern blot of miR-34b expression after 5-Aza-dC; assay type: cell-based, human; details: WM1552C
TERC = TERC expression in Aza-treated WM1552C cells; assay type: cell-based, human
miR-34b CpG island = experiment: bisulfite sequencing of miR-34b CpG island in 5-Aza-dC-treated cells; assay type: cell-based, human; details: WM1552C
WM1552C cells [2] = experiment: wound-healing motility assay, miR-375; assay type: cell-based, human; details: WM1552C/375, by 20 hours
Description: The in vitro motility of transfectants was measured in a wound-healing assay conducted as follows. […] The cell monolayers were gently scratched with a pipette tip across the diameter of the dish and rinsed extensively with medium to remove cellular debris. The surface area of the scratch was quantified immediately after wounding and then again every 20 minutes for 24 hours on the Nikon Bio Station IM. The extent of wound closure was established by calculating the ratio between the surface area of the wound for each time point versus the surface area of the initial wound. […] The surface area was determined using NIS Elements software and performed in triplicates.

WM1552C melanoma cells = experiment: cellular morphology of stable miR-375-expressing melanoma cells; assay type: cell-based, human; details: light microscopy, vs wild type and vector control cells
Description: Changes in cellular morphology of stable miR-375-expressing melanoma cells were measured compared with “vector-only” and untransfected cells, as shown in FIG. 4. To construct a stable miR-375-expressing melanoma cell line, oligonucleotides complimentary to the has-miR-375 genomic sequences were constructed with miR-375 pre For (CCC CGC GAC GAG CCC C; SEQ ID NO:27) and miR-375 pre Rev (GCC TCA CGC GAG CCG AAC G; SEQ ID NO:28). These oligonucleotides contained HindIII and BamHI sites on their respective 5′ and 3′ ends and were amplified from melanocyte genomic DNA (Amplitaq Gold, Applied Biosystems/Life Technologies). The product was then TOPO-cloned into pCR4-TOPO (Invitrogen/Life Technologies) and the vector construct was sequenced. The pre-hsa-miR-375 fragment was sub-cloned into pcDNA4/H1 using the HindIII and BamHI sites to create pcDNA/H1/miR-375. […] The following day, cells were selected with 800 μg/mL Zeocin for the following 15 days.
Live cells were imaged under normal culturing conditions by light microscope (Olympus IX71). The morphology time course was performed with cells growing exponentially, trypsinized and seeded with 2×10^4 cells into 4-well Lab-Tek II chamber slides (Thermo Fisher Scientific), with one slide per time point. […] The slides were then labeled with DAPI and fluorescence-labeled phalloidin, then imaged on a Nikon Eclipse microscope.

WM1552C cells [3] = experiment: proliferation assay, miR-375; assay type: cell-based, human; details: WM1552C/375 vs WM1552C or WM1552C/VO, sustained over 96 hour
Description: Exponentially growing cells were trypsinized and counted with the help of a Countess cell counter (Invitrogen/Life Technologies) and seeded at 10^4 cells/cm^2 (0.1×10^6 cells/35-mm petri dish), which was taken as the initial value (N0) for all growth kinetics measurements. Cells were harvested at 24-hrs intervals up to 72 hrs by trypsinization. A minimum of 6 observations spread over 2 independent experiments were taken for determining the proliferation rate ‘pR’:
where N0=number of cells at 0 h, and Nt=number of cells at time ‘t’. The mean doubling time of untreated cells was calculated from the exponential region of the growth curves, in this case between 24 hrs and 72 hrs.

WM1552C cells [4] = experiment: Matrigel invasion assay, miR-375; assay type: cell-based, human; details: WM1552C/375, 48 hrs
Description: BD BioCoat™ growth factor reduced insert plates (Matrigel™ Invasion Chamber 12 well plates) were prepared by rehydrating the BD Matrigel™ matrix coating in the inserts with 0.5 ml of culture medium for 2 hrs at 37° C. The rehydration solution was carefully removed from the inserts, 0.75 mL Complete Tu medium containing chemoattractant (1% FBS) was added to the lower wells of the plate, and 0.5 mL of cell suspension (1×10^4 cells, in serum-free medium) was added to each insert well. Invasion assay plates were incubated for 48 hrs at 37° C. Following incubation, the non-invading cells were removed by scrubbing the upper surface of the insert. The cells on the lower surface of the insert were stained with crystal violet and each trans-well membrane mounted on a microscopic slide for visualization and analysis. The slides were scanned using the Scanscope digital slide scanner, and the number of cells migrating was counted using Aperio software.

| Compound | miR-375 expression (miR-375) | expression level of epigenetically regulated miRNAs (WM1552C cells [1]) | methylation level of miR-375 CpG island after treatment (miR-375 CpG island) | concentration of maximum induction of miR-34b expression (miR-34b) | expression of miR-34b (miR-34b; increasing concentrations) | TERC expression (TERC) | miR-34b expression (WM1552C cells [1]; qRT-PCR, FIG. 1B) | CpG island methylation of miR-34b (miR-34b CpG island) | wound closure (WM1552C cells [2]) | cell morphology (WM1552C melanoma cells) | reduction of proliferation (WM1552C cells [3]) | invasion frequency relative to wild type or vector-expressing cells (WM1552C cells [4]) |
| --- | --- | --- | --- | --- | --- | --- | --- | --- | --- | --- | --- | --- |
| O=C(O)CCCc1ccccc1 [4-PBA, 4-phenylbutyrate] | but not by 4-PBA treatment | no statistically significant effects |  |  |  |  |  |  |  |  |  |  |
| Nc1ncn([C@H]2C[C@H](O)[C@@H](CO)O2)c(=O)n1 [5AzadC, 5-aza-2′-deoxycytidine] |  | markedly increases | 16.7% | 10 µM | induced | up-regulation | strongly modulated | largely erased |  |  |  |  |
| miR-375: nucleic acid exemplified by SEQ ID NO:1 (UUUGUUCGUUCGGCUCGCGUGA); stably expressed in WM1552C from pcDNA4/H1 vector (WM1552C/375) (UUUGUUCGUUCGGCUCGCGUGA) |  |  |  |  |  |  |  |  | less than 30% | more slender and elongated shape | 10 to 15% | less than 50% |

From patent US20130084328A1, “METHYLATED CODING AND NON-CODING RNA GENES AS DIAGNOSTIC AND THERAPEUTIC TOOLS FOR HUMAN MELANOMA” (Sanford-Burnham Medical Research Institute, priority 2011, published 2013)
